# Data published in patent US9930887B2, “Compound for increasing amino acid content in plant, and use thereof” (Okayama Prefecture, priority 2011, dated 2018).
# Like-named read-outs stand apart in the source and are kept apart here. This is a selection: effects in other tests are not listed, and their absence says nothing.
# What was measured:
# Arabidopsis [1] = conditions: for total free amino acid content relative to control condition (only water): 1 mM GSSG, 2 mM GSH or 3 mM NH4NO3, 25 mL per pot to roots once a week
# Arabidopsis [2] = conditions: 1 mM GSSG, 2 mM GSH, 3 mM NH4NO3
substance,measurement,setting,value
ammonium nitrate,"contents of individual free amino acids, ratio to control (Cont.) = 1 (FIG. 2)","Arabidopsis [1]; 4 weeks from seeding, some amino acids (proline, tyrosine, asparagine, glutamine, glutamic acid, methionine, histidine, arginine, GABA, hydroxyproline, homoserine)",scarcely increased
same,"contents of individual free amino acids, ratio to control (Cont.) = 1 (FIG. 3)","Arabidopsis [1]; 5 weeks from seeding, some amino acids (alanine, serine, proline, valine, tyrosine, isoleucine, leucine, asparagine, lysine, glutamine, histidine, arginine, GABA, hydroxyproline, homoserine)",scarcely increased
same,total free amino acid content relative to control condition (only water),Arabidopsis [1]; plants after 4 weeks from seeding,not increased
same,total free amino acid content relative to control condition (only water),Arabidopsis [1]; plants after 5 weeks from seeding,about 1.37 times
same,asparagine content in a leaf,Arabidopsis [2]; effect larger in leaf before photoirradiation (L0),not observed
same,serine content in a leaf,"Arabidopsis [2]; treatment combined with photoirradiation for 8 hours (L8, 100 μE/m^2/s)",not observed
